# From US7507547B2, “Screening assays for antioxidants and antiproliferative compounds” (University of Massachusetts, priority 2004, dated 2009)
# System: PC3 cells
# Experiment: NT-induced proliferation of PC3 cells (^3H-thymidine)
# Format: cell-based
# Details: read-out: IC50 for inhibition of NT-induced proliferation; 24 hours, 10 nM NT
smiles,measurement,value
CCN1C(C)=C(C(C)=O)C(c2ccccc2)C(C(C)=O)=C1C,IC50,> 10 µM
